Measured values: article PMC6467916 (Scientific Reports, 2019)

Key:
[1] = target: T1, mature IL-18 (interleukin-18, residues 37-193) (human, UniProt Q14116-1 37-193); assay: NMR (1H-15N SOFAST HMQC) with in situ caspase-1 cleavage; 200 uM [15N]-proIL-18 cut by 10 units caspase-1; spectra over about 24 h; 37 °C; caspase-1 reaction buffer (20 mM HEPES-Na pH 7.4, 100 mM NaCl, 1 mM EDTA, 10 mM DTT); KD estimated from the intensity left in proIL-18-like cross-peaks; conditions: both partners purified
T1 construct: human interleukin-18, mature region, residues 37-193 of the precursor proIL-18 (NM_001562.3, residues 1-193); made by deleting residues 1-36 from the proIL-18 construct; Unlabelled or uniformly 15N-labelled, depending on the experiment; also called mature region of IL-18; [15N]-IL-18; source: in the caspase-1 experiment generated in situ from purified proIL-18 by caspase-1; not shown: His6, …
T1 sequence (looked up): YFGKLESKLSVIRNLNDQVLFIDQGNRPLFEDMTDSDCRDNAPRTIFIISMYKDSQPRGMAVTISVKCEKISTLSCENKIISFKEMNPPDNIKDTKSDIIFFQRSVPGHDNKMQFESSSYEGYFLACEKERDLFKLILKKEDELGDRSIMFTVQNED

[2] = target: T1, mature IL-18 (interleukin-18, residues …); assay: NMR titration; 1H-15N spectra of [15N]-proIL-18PP (28.4 nmol in 300 uL) alone or with 320 uM (three molar equivalents) non-labelled IL-18; NMR buffer (20 mM potassium phosphate pH 6.0, 150 mM KCl, 1 mM TCEP); 25 °C; KD from cross-peak intensities; conditions: both partners purified

Kd [1]: ~100 µM
Kd [2]: > 36 µM
B1: proIL-18PP (propeptide of proIL-18, residues 1-36) (peptide, UniProt Q14116-1 1-36, looked up)
peptide: MAAEPVEDNCINFVAMKFIDNTLYFIAEDDENLESD
notes: human interleukin-18 precursor (proIL-18, NM_001562.3), propeptide residues 1-36; made by replacing Y37 of the proIL-18 construct with a stop codon; Recombinant peptide, unlabelled or 15N-labelled, depending on the experiment; also called [15N]-proIL-18PP; [13C/15N]-proIL-18PP; source: in the caspase-1 experiment generated in situ from purified proIL-18 by caspase-1; not shown: His6, N-terminal, …
